These are literature values, as cited in paper PMC11293113, “Comparing regional brain uptake of incretin receptor agonists after intranasal delivery in CD-1 mice and the APP/PS1 mouse model of Alzheimer’s disease” (Alzheimer's Research & Therapy, 2024).

The conditions of this data set: native incretin hormones; cited from earlier work. As for the experimental part: IRAs are forms of these hormones modified to prolong their otherwise very short half-lives in plasma (less than 2 min).

“glucose-dependent insulinotropic polypeptide [GIP]”: the Half-life in plasma result was “less than 2 min”.
